Measurements published in publication PMC11926787 (ACS Chemical Neuroscience, 2025).

By UniProt entry, the sequences of proteins in these tests, tags left out.
UniProt P21397, whole entry: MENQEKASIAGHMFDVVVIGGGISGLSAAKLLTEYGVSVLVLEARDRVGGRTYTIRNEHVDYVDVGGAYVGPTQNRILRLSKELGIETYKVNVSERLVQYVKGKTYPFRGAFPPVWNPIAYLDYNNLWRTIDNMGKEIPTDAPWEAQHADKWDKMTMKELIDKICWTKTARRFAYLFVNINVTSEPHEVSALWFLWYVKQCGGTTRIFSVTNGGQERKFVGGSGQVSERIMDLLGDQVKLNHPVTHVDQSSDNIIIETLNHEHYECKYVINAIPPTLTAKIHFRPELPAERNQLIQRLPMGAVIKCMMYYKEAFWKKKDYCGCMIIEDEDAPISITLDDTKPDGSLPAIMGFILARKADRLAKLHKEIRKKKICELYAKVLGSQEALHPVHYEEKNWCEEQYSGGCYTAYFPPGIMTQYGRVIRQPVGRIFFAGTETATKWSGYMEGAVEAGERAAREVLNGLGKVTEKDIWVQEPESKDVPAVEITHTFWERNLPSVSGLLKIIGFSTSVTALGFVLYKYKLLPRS

Molecular target: human MAO-A (Homo sapiens, UniProt P21397)
Test: MAO-Glo bioluminescent enzymatic assay, MAO-A
Type: biochemical
Settings: MAO-A inhibition mean IC50 value, human recombinant MAO-A

## c1ccc2c(c1)[nH]c1cnccc12 [norharman]
  IC50: 1700 nM
